# Biological target: human GLP-1 receptor (human, UniProt P43220 24-463)
# Sequences of proteins named here, by UniProt entry; tags and fusion partners are left off. A change or cut given only in a name is not applied to a line headed by its entry.
# UniProt P43220: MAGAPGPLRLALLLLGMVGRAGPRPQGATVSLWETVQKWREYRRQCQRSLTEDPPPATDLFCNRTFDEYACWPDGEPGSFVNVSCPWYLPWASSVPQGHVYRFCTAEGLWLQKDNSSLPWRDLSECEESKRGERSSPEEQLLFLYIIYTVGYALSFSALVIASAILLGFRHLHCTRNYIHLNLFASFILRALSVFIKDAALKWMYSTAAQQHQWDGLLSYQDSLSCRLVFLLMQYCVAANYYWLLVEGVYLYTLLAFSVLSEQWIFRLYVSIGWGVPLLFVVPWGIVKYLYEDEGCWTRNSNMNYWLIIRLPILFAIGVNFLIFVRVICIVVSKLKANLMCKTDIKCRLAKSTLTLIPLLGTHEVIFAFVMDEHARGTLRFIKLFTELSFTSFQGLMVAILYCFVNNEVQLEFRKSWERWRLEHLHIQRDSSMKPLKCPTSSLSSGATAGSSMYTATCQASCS
# Experiment: cell-based or functional assay
Binder,"Cyclic AMP-producing activity, relative to naturally occurring GLP-1 (=100%), at 1 × 10^-10 M [%]","Cyclic AMP-producing activity, relative to naturally occurring GLP-1 (=100%), at 1 × 10^-11 M [%]","Cyclic AMP-producing activity, relative to naturally occurring GLP-1 (=100%), at × 10^-9 M [%]"
HAEGTFTSDVSSYLEGQAAKEFIAWLVKGRR (C-terminal amide (-NH2)) [GLP-1 (7-36)+Arg-NH2],101,7.4,78.1
HAEGTFTSDVSSYLEGQAAKEFIAWLVKGRRR (C-terminal amide (-NH2)) [GLP-1 (7-36)+Arg-Arg-NH2],91.9,72.3,112
